One test concerns the target Mu-type opioid receptor (Homo sapiens, UniProt P35372).
Test [1] has as its target Kappa-type opioid receptor (Homo sapiens, UniProt P41145).
The target in test [2] is Delta-type opioid receptor (Homo sapiens, UniProt P41143).

By UniProt entry, the sequences of proteins in these tests, tags left out. Where a name states a change or a piece, a line headed by the entry shows the natural chain unless it says otherwise.
UniProt P35372, whole entry: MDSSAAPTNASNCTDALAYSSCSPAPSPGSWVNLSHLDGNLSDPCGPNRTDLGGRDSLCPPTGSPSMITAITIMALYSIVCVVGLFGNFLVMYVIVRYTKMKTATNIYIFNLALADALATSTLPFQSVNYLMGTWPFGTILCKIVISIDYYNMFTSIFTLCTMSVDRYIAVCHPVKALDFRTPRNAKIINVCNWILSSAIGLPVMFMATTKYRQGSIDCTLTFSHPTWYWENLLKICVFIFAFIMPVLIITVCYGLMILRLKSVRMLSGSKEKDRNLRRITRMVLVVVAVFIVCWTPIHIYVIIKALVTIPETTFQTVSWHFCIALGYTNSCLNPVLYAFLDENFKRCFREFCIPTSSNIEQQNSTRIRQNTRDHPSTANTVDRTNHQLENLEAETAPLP
UniProt P41145: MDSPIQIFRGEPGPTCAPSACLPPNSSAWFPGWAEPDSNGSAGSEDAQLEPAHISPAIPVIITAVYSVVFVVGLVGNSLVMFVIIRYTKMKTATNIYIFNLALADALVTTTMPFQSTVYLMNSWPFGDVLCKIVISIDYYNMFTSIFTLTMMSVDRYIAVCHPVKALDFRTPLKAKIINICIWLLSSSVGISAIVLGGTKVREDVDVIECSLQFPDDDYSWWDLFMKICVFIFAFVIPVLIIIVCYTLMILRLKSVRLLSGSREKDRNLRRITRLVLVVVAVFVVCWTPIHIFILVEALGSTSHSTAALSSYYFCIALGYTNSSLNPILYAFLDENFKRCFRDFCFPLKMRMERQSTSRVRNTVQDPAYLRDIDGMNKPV
UniProt P41143, whole entry: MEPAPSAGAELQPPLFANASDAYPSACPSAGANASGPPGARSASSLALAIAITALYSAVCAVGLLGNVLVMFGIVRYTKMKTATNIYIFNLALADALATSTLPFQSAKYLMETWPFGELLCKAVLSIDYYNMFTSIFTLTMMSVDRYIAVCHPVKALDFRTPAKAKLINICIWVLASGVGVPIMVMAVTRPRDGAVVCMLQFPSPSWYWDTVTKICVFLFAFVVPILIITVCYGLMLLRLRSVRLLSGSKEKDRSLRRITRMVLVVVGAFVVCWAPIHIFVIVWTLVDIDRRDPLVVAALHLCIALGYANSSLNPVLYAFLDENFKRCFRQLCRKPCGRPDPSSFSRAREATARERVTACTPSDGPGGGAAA

As usually defined, the Ki is the dissociation constant of the complex between target and ligand, obtained from inhibition or displacement. A lower Ki goes with higher affinity. `CC(C)[C@H](NC(=O)[C@H](CCC(=O)O)NC(=O)[C@H](Cc1ccccc1)NC(=O)[C@@H](C)NC(=O)[C@@H](N)Cc1ccc(O)cc1)C(=O)N[C@H](C(=O)NCC(N)=O)C(C)C` [Tyr-D-Ala-Phe-Glu-Val-Val-GlyNH2]: at Mu-type opioid receptor, the Ki was 230 nM.
Consider `Oc1ccc2c3c1OC1c4[nH]c5ccccc5c4CC4(O)[C@H](C2)N(CC2CC2)CCC314` (stereo partly drawn) [NALTRINDOLE], for which the Ki on Mu-type opioid receptor was 22.9 nM; in test [1], 25.6 nM.
On to `CC(C)C[C@@H](NC(=O)[C@H](Cc1ccccc1)NC(=O)CNC(=O)[C@@H](C)NC(=O)[C@@H](N)Cc1ccc(O)cc1)C(=O)O` [[D-Ala2-D-Leu5]enkephalin], for which the Ki on Mu-type opioid receptor turned out to be 2.85 nM; in test [1], 10.2 nM.
On to `CC(C)[C@H](NC(=O)[C@H](CC(=O)O)NC(=O)[C@H](Cc1ccccc1)NC(=O)[C@@H](C)NC(=O)[C@@H](N)Cc1ccc(O)cc1)C(=O)N[C@H](C(=O)NCC(N)=O)C(C)C` [Deltorphin I], for which the figures for the Ki (at Mu-type opioid receptor; in test [2]; in test [1]) were 57.5 nM, 0.49 nM and 414 nM, respectively.

Values taken from BindingDB's records for PubMed 7932177 (Memorial Sloan-Kettering Cancer Center, 1994).
